Experimental data taken from patent publication US6897208B2, “Benzimidazoles” (Aventis Pharmaceuticals Inc., priority 2001, dated 2005).

Sequences of proteins named here, by UniProt entry; tags and fusion partners are left off. Residues count along the entry.
UniProt P35968, 786-1356 limits assumed: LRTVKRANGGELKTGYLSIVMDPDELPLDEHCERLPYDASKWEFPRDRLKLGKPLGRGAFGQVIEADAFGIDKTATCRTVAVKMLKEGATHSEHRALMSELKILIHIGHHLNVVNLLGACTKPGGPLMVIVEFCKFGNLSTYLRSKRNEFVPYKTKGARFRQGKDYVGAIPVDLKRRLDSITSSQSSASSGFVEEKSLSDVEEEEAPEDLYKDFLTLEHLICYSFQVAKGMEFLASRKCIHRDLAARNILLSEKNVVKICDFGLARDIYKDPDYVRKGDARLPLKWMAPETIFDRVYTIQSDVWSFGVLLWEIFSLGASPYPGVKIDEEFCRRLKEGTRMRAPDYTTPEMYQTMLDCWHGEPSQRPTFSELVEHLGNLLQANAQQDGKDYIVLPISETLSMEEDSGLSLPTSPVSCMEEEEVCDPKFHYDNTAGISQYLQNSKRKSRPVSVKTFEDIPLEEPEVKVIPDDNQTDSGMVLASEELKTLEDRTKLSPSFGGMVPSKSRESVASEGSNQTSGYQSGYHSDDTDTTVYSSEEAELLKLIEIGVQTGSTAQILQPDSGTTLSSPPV

Target: human KDR enzyme (Homo sapiens, UniProt P35968)
Test: Phosphorylation of PLCγ substrate by the enzyme KDR in vitro (flashplate technique)
Details: read-out: Activity (IC50 class); Table 6; degrees of activity in 'the above tests'
Procedure: 1. Inhibitory Effects of Compounds on KDR
The inhibitory effect of the compounds is determined in a test of phosphorylation of a substrate by the enzyme KDR in vitro by the flasplate technique (96-well plate, NEN).
The cytoplasmic domain of human KDR enzyme is cloned in the form of a GST fusion into the baculovirus expression vector pFastBac. The protein is expressed in the SF21 cells and purified to about 60% homogeneity.
The kinase activity of KDR is measured in 20 mM MOPS, 10 mM MgCl2, 10 mM MnCl2, 1 mM DTT, 2.5 mM EGTA, 10 mM β glycerophosphate, pH 7.2 in the presence of 10 mM MgCl2, 100 μM Na3VO4, 1 mM NaF. 10 μl of the compound are added to 70 μl of kinase buffer containing 100 ng of KDR enzyme at 4° C. The reaction is initiated by adding 20 μl of solution containing 2 μg of substrate (fragment SH2-SH3 of PLCγ expressed in the form of a GST fusion protein), 2 μCi γ33P[ATP] and 2 μM cold ATP. After incubating for 1 hour at 37° C., the reaction is quenched by adding 1 volume (100 μl) of 200 mM EDTA. The incubation buffer is removed and the wells are washed three times with 300 μl of PBS. The radioactivity is measured in each well using a Top Count NXT instrument (Packard).
Background noise is determined by measuring the radioactivity in wells in quadruplet containing radioactive ATP and the substrate alone.
An activity control is measured in wells in quadruplet containing all the reagents (γ33P-[ATP], KDR and the substrate PLCγ) and in the absence of compound.
The inhibition of the KDR activity with the compound of the invention is expressed as a percentage of inhibition of the control activity determined in the absence of compound.
The compound SU5614 (Calbiochem) (1 μM) is included in each plate as inhibition control.
The IC50 values for the compounds are calculated by plotting the dose-response curves. The IC50 corresponds to the concentration of compound that induces a 50% inhibition of the kinase activity.

| IC50 | SMILES |
| --- | --- |
| 300 to 3000 nM | CC(C)=CCC/C(C)=C/COc1cc(-c2nc3ccccc3[nH]2)[nH]n1 |
| 300 to 3000 nM | Brc1cccc(COc2cc(-c3nc4ccccc4[nH]3)[nH]n2)c1 |

| SMILES | IC50 |
| --- | --- |
| O=C(Oc1cc(-c2nc3ccccc3[nH]2)[nH]n1)c1ccc(C(F)(F)F)cc1 | > 3000 nM |
